# Key:
# Protein sequences, listed by entry. Tags and fused reporters are not part of them. Residues count along the entry.
# UniProt P28347, 209-426: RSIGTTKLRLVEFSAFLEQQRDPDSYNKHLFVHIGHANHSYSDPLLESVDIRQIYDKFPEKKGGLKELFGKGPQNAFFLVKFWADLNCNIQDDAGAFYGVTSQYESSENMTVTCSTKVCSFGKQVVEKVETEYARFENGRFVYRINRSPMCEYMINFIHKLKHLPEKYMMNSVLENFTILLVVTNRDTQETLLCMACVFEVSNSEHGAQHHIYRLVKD
# MSTO-211H cells = assay: Proliferation Assay (CellTiter-Glo Luminescent Cell Viability Assay); settings: read-out: MSTO-211H IC50, 96 hours treatment
# Method: Example 5: Proliferation Assay
# The effect of compound on YAP driven cancer cells proliferation was assessed in MSTO-211H (ATCC, CRL-2081TM) or NCI-H2052 (ATCC, CRL-5915TM) cells using CellTiter-Glo Luminescent Cell Viability Assay (Promega, G7570).
# Briefly, individual cell lines were seeded in 96-well cell culture plate at the density of 1,500 cells per well and cultured in RPMII1640 (Gibco-A10491-01)+10% FBS (Gibco-10099-141C)+1% Penicillin-Streptomycin (5,000 U/mL, Gibco-15070-063) overnight at 37° C. with 5% CO2 before adding the compounds.
# Following incubation, serial dilutions of compounds dissolved in DMSO were added to each well (3-fold dilution with 9 concentration points). The final concentration of DMSO present in this assay is below 0.5% and make duplication for each compound treated well.
# Following 96 hours treatment, compound mediated cell growth inhibition was measured using CellTiter-Go Luminescent Cell Viability Assay (Promega, G7570). […] CellTiter-Glo in each assay well, mix and incubate at room temperature for 10 min. Read signal using EnVision® Multilabel Plate Reader (Perkin Elmer).
# For data analysis, cell proliferation inhibition was calculated using the following formula:
# Inhibition %=(1−(Compound treated well CTG signal/DMSO well CTG signal))*100.
# IC50 values were calculated using GraphPad Prism software using a four-parameter fit model.
# [1] = biological target: TEAD1(210-426) binding to YAP(50-100) (Homo sapiens, UniProt P28347); assay: TR-FRET Assay for TEAD1(210-426) Binding to YAP(50-100); settings: His-TEAD 10 nM, YAP-Biotin peptide 50 nM
Compound,IC50 (MSTO-211H cells) [nM],IC50 [1] [nM]
O=c1cc(-c2nn(-c3ccc(C(F)(F)F)cc3)c3ncccc23)ccn1Cc1ccnc(CO)n1,< 1000,< 100
CNc1nccc(Cn2ccc(-c3nn(-c4ccc(C(F)(F)F)cc4F)c4c(F)cccc34)cc2=O)n1,< 1000,< 100
